# Bioassay records (PubChem BioAssay)
# Glyco luc inh – increase of ERlucT glycosylation luciferase signal, primary screen, N-linked glycosylation inhibitor project, D54 ERlucT cells, luminescence, set 2 | D54 ERlucT glycosylation luciferase reporter, 24 h; percent of 100 nM tunicamycin response | reporter increase, % at 12.5 µM | 0.23% of 360,000 active | AID 588692, 2011;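 active = mean luciferase reporter signal, scaled so untreated is 0 and the glycosylation-blocking control 100, at or above a set limit in every replicate; inconclusive = mean reaches the limit but not every replicate does; inactive = mean below the limit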;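 note: luciferase carries N-glycosylation sites so blocking glycosylation raises the light; 0% = median of neutral control wells and 100% = median of 100 nM tunicamycin wells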
# Yeast UUG start – modulators of yeast start codon fidelity, primary screen, whole organism, S. cerevisiae, single point, plate reader. S. cerevisiae UUG-firefly luciferase reporter, luminescence/redox ratio. activity score, % at 18.7 µM. actives 0.13% (n = 350,000);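 active = replicate mean at a twofold rise or more, about +100% in these data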;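 note: firefly luciferase made from a UUG start codon reports start codon fidelity; reporter light over untreated wells divided by growth signal over untreated wells; some hits fall short of that in this replicate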
# C2C12 statin – suppressors of statin myotoxicity in C2C12 myotubes, primary screen, cell-based, single point, plate reader | C2C12 myotubes + simvastatin, ATP luminescence, 48 h; scaled: DMSO 0, geranylgeraniol control 100 | rescue of ATP level, % at 7.49 µM | 0.78% of 330,000 active | AID 602340, 2012;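 active = mean ATP rescue above about 67%, or every replicate alone reaching that limit, limit read from the data, passing the limit was not always enough; inconclusive = no clear call, values can overlap the other calls; inactive = mean under the limit and some replicate under it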;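 note: myotubes were challenged with 10 µM simvastatin during compound exposure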
# Cneo AK release – Cryptococcus neoformans cell lysis inducers, primary screen, AK release luminescence, single concentration; C. neoformans lysis, adenylate kinase release luminescence, 4 h; normalised: neutral wells 0, clomiphene wells 100; lysis activity, % at 15 µM; 0.2% of 360,000 active;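 active = mean lysis activity across replicates of at least 80%, whatever share of replicates individually reach that level; inactive = mean lysis activity below 80%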
#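 Material – Cryptococcus neoformans yeast cells · Quantity – 5 × 10^6 yeast cells/mL · Buffer or medium – YPD medium · Compound – single dose · Timing – 4 h static compound exposure, 37 °C, read 1 h post-reagent · Signal – adenylate kinase release luminescence · Read-out basis – lysis from increased AK signal · Benchmarks – Clomiphene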
# miR122 inh – miR-122 Renilla sensor signal increase in Huh7, primary screen, miR-122 inhibitor project, cell-based, single point, plate reader; Huh7 miR-122 Renilla luciferase sensor, 48 h; neutral wells = 0, positive control = 100; activation (reporter increase), % at 12.5 µM; 0.3% of 340,000 active; AID 602342, 2012;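 active = mean replicate activation score at least 90 and every replicate individually at or above 90; inconclusive = only one of the two criteria met; inactive = neither criterion met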;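 note: higher luciferase means less miR-122 activity so hits act as miR-122 inhibitors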
# miR-27b qPCR – miR-27b levels after miR-122 inhibitor treatment, dose response, selectivity assay for miR-122 inhibitor project, cell-based, Huh7, RT-qPCR, dry powder; relative miR-27b level (unnormalised ratio), ratio at 35 µM; Huh7 miR-27b levels, qRT-PCR, 48 h; AID 687039, 2013; 35 tested, under 10 active; shares compounds with miR122 inh;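 active = compounds lowering miR-27b whose fitted half-maximal dose is at most twice their top tested dose; inconclusive = flat curve with moderate drop, or poor fit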
# An asterisk follows results filed as active; ? = inconclusive; nt = no result given; [ ] = dose if it differs, or a comment. Sampled rows, rich in hits. Any-hit rate of the full collection: about 1.2%.
SMILES,Glyco luc inh,Yeast UUG start,C2C12 statin,Cneo AK release,miR122 inh,others
CN1CCN(c2ccc(NC(=S)NC(=O)c3cccc4c(Br)cccc34)cc2)CC1,-1,-14,126*,2,6,
C/C=C/c1ccc2c(c1)O[C@@H](CN(C)Cc1ccccn1)[C@H](C)CN([C@H](C)CO)S2(=O)=O,nt,-13,-27,0,3[16.7 µM],
Cn1c(SCC(=O)c2ccc(F)cc2)ncc(C(=O)Nc2ccccc2)c1=O,36*,-24,11,-1,4,
CC(=O)Nc1ccc(NC(=O)CSc2ncc(C(=O)Nc3ccccc3)c(=O)n2C)cc1,14,-12,18,3,4,
CC12CC3CC(C)(C1)CC(C(=O)NC(=S)N1CCCCC1)(C3)C2,-1,-22,1,111*,4,
CCCC(=O)N1CCCC(c2cc(C(=O)Nc3ccccc3)no2)C1 (stereo not drawn),-17,-80,2,-9,-4,
Cc1cc(=O)oc2cc(OCC3CC(c4ccc(Cl)cc4)=NO3)ccc12 (stereo not drawn),0,-9,12,1,0,
NNC(=O)c1ccc(OCC2CC(c3ccc(Cl)cc3)=NO2)cc1 (stereo not drawn),52*,1,nt,-3,1,
Cc1cc2nc(N3CCN(C(=O)c4cccs4)CC3)sc2cc1C,-3,-6,-17,36,-3,
COc1ccc(S(=O)(=O)N2CCN(C(=O)c3cccs3)CC2)cc1,0,6,2,-4,1,
Cc1ccc(S(=O)(=O)N2CCN(C(=O)c3cccs3)CC2)cc1C,-4,3,118*,0,1,
Cc1cc(C)c2nc(N3CCN(C(=O)c4cccs4)CC3)sc2c1,-1,-14,nt,148*,nt,
CO[C@H]1CN(C)C(=O)c2ccc(NC(C)=O)cc2OC[C@@H](C)N(C(=O)C2CCC2)C[C@@H]1C,nt,11,-10,-10,nt,
c1ccc(C2=Nn3c(nnc3-c3cc(-c4ccccc4)n[nH]3)SC2)cc1,22,-21,56,-2,2,
c1ccc(C2=Nn3c(nnc3-c3n[nH]c4c3CCC4)SC2)cc1,38*,-18,25,10,9,
Clc1ccc(C2=Nn3c(nnc3-c3cc(-c4ccccc4)n[nH]3)SC2)cc1,?,4,50,-2,-3,
Clc1ccc(C2=Nn3c(nnc3-c3n[nH]c4c3CCC4)SC2)cc1Cl,81*,-20,21,-1,2,
COC(=O)c1c(C(=O)OC)c2cc(C)ccn2c1Cl,1,-23,101*,-2,-1,
Cc1ccc(-n2c(CSc3nc(C)cc(C)n3)n[nH]c2=S)cc1,0,nt,nt,nt,-1,
Cc1cc(C)nc(SCc2n[nH]c(=S)n2C)n1,1,-20,92*,-1,18,

# 5 entries already listed, ordered by SMILES length, lowest first:
SMILES,Glyco luc inh,Yeast UUG start,C2C12 statin,Cneo AK release,miR122 inh,others
COC(=O)c1c(C(=O)OC)c2cc(C)ccn2c1Cl,1,-23,101*,-2,-1,
NNC(=O)c1ccc(OCC2CC(c3ccc(Cl)cc3)=NO2)cc1 (stereo not drawn),52*,1,nt,-3,1,
COc1ccc(S(=O)(=O)N2CCN(C(=O)c3cccs3)CC2)cc1,0,6,2,-4,1,
c1ccc(C2=Nn3c(nnc3-c3cc(-c4ccccc4)n[nH]3)SC2)cc1,22,-21,56,-2,2,
CO[C@H]1CN(C)C(=O)c2ccc(NC(C)=O)cc2OC[C@@H](C)N(C(=O)C2CCC2)C[C@@H]1C,nt,11,-10,-10,nt,

# (more compounds)
SMILES,Glyco luc inh,Yeast UUG start,C2C12 statin,Cneo AK release,miR122 inh,others
O=C(C[C@H]1CC[C@H]2[C@@H](COC[C@@H](O)CN2C(=O)Nc2cc(Cl)cc(Cl)c2)O1)NCC1CC1,nt,nt,2,3,2[16.7 µM],
CCN(CC)CCCNc1nc2cc(OC)c(OC)cc2c2nc(-c3ccccc3)nn12,41*,-7,32,3,14,
CCN(CC)CCCNc1nc2cc(OC)c(OC)cc2c2nc(-c3cccnc3)nn12,11,-8,25,1,-6,
CCN(CC)CCCNc1nc2ccccc2c2nc(-c3ccncc3)nn12,119*,-3,?,-1,-14,
CCCn1c(=S)[nH]c2cc(C(=O)N3CCN(C(=O)OCC)CC3)ccc2c1=O,0,-18,9,-4,0,
CCOC(=O)N1CCN(C(=O)c2ccc3c(=O)n(Cc4ccc(Cl)cc4)c(=S)[nH]c3c2)CC1,4,-14,82*,4,2,
CCOC(=O)N1CCN(C(=O)c2ccc3c(=O)n(CCC4=CCCCC4)c(=S)[nH]c3c2)CC1,-3,0,94*,-1,-6,
C[C@H](CO)N1C[C@H](C)[C@H](CN(C)CC2CC2)Oc2ncc(-c3cccc(C(=O)N(C)C)c3)cc2C1=O,nt,16,nt,-10,11[16.7 µM],
Cc1noc(C)c1NC(=O)Nc1ccc2c(c1)C(=O)N([C@@H](C)CO)C[C@@H](C)[C@@H](CN(C)Cc1ccncc1)OCCCC[C@@H](C)O2,nt,-1,nt,-1,8[16.7 µM],
CN(C(=O)COc1cc(=O)n(C)c2ccccc12)c1ccc(Cl)cc1,1,-7,-1,-1,-5,
CN(c1ccc(Cl)cc1)c1cc(=O)n(C)c2ccccc12,6,39,129*,-5,-13,
CC(C)(C)c1cc(C(=O)NNc2cccc(Cl)c2)n(Cc2ccccc2)n1,-12,-10,61,-1,126*,
O=C1c2ccccc2[C@@]2(Cc3ccccc3N(Cc3ccccc3)C2=O)[C@H](c2ccc(CO)cc2)N1C1CCCCC1,nt,52,nt,-4,nt,
O=S(=O)(Nc1cccc2[nH]ncc12)c1ccc(F)c2ncccc12,nt,nt,nt,nt,nt,miR-27b qPCR=0.89
Cc1ccc(C)c(NS(=O)(=O)c2cc(C(=O)NCc3ccccn3)ccc2Cl)c1,-4,-26,1,-1,75,
Cc1ccc(NS(=O)(=O)c2cc(C(=O)NCc3ccccn3)ccc2Cl)cc1C,-2,-21,9,-1,101*,miR-27b qPCR=0.97
COc1cccc(N2CCN(C(=O)c3oc4ccccc4c3NC(=O)CCc3cc(OC)no3)CC2)c1,-1,-5,-2,1,?,miR-27b qPCR=0.64
CCCNC(=O)N(C)C[C@H]1Oc2ncc(-c3cccc(C#N)c3)cc2C(=O)N([C@H](C)CO)C[C@@H]1C,nt,12,3,7,nt,
CC(=O)Nc1ccc(S(=O)(=O)NC2CC3CCC2C3)cc1 (stereo not drawn),-1,-6,5,2,31,
Cc1cc(C)c(S(=O)(=O)NC2CC3CCC2C3)c(C)c1 (stereo not drawn),-2,-22,2,-1,125*,miR-27b qPCR=0.47
O=C(NCc1cccs1)C1CCCN1C(=O)Nc1ccc(F)cc1 (stereo not drawn),2,-17,7,-4,-1,
CC1CCCCN1C(=O)c1cc2nc(-c3ccccc3)cc(-c3ccccc3)n2n1 (stereo not drawn),-5,-7,-2,1,121*,miR-27b qPCR=0.9
Cc1noc(C)c1NC(=O)N(C)C[C@@H]1Oc2c(NC(=O)C3CCCCC3)cccc2C(=O)N([C@H](C)CO)C[C@H]1C,nt,-26,9,0,2[16.7 µM],
